From PubChem BioAssay (Tox21)
Where “and” joins values, the source holds several entries; their conditions need not be identical. Equal values may be shown once. This is a selection; strong and weak results do not stand in their true shares. Results filed as inconclusive are left out. Some compounds were tested as several samples or in several runs, with calls that do not always agree. Calls of active or inactive are those of the source. Unless noted, calls come from the whole dose curve; as a rule, active = well fitted curve in the direction sought with a large enough effect in the repeat runs; inconclusive = weak or mixed curves; inactive = no such curve, though single readings can be large; an effect the other way counts as inactive or inconclusive.

By UniProt entry, the sequences of proteins in these tests, tags left out.
UniProt P04150, whole entry: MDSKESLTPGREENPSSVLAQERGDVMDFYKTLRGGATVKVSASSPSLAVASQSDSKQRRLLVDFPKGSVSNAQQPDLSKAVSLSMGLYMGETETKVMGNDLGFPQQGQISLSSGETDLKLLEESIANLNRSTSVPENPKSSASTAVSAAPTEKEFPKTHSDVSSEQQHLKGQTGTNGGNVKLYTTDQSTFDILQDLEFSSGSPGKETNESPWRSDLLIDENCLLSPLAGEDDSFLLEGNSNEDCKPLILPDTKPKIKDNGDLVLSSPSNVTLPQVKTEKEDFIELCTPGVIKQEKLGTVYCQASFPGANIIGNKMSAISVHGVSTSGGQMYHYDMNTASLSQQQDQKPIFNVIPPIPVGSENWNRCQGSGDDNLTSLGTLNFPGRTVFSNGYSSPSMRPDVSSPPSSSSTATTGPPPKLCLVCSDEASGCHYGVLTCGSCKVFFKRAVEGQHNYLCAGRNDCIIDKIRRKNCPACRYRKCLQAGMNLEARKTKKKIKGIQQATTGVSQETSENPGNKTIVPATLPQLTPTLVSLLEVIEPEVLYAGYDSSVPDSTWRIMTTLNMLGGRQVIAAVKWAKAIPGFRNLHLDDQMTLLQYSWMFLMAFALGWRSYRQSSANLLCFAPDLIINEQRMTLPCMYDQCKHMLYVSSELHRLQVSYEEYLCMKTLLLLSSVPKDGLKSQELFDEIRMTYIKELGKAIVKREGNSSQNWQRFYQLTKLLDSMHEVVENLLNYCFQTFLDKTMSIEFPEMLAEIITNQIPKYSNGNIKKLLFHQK
UniProt P10275, whole entry: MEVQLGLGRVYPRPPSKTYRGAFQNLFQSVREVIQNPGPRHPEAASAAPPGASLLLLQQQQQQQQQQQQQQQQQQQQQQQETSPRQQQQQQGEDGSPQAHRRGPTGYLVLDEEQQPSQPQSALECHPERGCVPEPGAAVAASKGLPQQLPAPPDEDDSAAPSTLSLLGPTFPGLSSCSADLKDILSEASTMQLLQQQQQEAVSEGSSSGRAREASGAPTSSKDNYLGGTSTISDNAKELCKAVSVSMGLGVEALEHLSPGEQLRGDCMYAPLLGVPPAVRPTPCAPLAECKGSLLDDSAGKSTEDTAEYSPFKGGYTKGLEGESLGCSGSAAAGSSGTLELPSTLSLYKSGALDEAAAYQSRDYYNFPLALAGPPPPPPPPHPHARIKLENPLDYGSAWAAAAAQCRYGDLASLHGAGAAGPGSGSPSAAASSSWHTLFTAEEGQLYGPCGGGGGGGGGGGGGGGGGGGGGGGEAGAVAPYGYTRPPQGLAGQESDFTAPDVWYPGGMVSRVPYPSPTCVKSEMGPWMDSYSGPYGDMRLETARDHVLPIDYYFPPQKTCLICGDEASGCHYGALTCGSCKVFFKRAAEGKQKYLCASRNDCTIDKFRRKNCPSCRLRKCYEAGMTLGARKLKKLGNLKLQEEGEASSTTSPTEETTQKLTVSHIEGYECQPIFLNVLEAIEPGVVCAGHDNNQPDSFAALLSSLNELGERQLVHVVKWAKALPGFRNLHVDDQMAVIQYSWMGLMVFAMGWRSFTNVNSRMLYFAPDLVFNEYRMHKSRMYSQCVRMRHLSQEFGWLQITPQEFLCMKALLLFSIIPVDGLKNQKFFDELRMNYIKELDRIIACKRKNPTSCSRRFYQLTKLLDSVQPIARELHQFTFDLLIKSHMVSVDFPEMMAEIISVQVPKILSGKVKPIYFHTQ

Columns and labels:
[1] = qHTS assay to test for compound auto fluorescence at 460 nm (blue) in HepG2 cell free culture (AID 720685); settings: Cell-free culture medium, blue autofluorescence 405/460 nm
In short: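 Compound (23 nL) or DMSO pinned into cell-free MEM with 10% FBS; blue fluorescence read at 405/460 nm excitation/emission, expressed as auto-fluorescence equivalency to triamterene.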

[2] = qHTS assay to test for compound auto fluorescence at 535 nm (green) in HepG2 cell free culture (AID 720686); settings: Cell-free medium, green autofluorescence 485/535 nm
[3] = qHTS assay to test for compound auto fluorescence at 460 nm (blue) in HepG2 cells (AID 720687); settings: autofluorescence 405/460 nm, 1 h
In short: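 Blue-channel autofluorescence (Ex/Em 405/460 nm, triamterene-equivalent) was measured after 1 hr compound exposure at 37 C, 5% CO2. Cells were HepG2, plated overnight at 37 C in MEM plus 10% FBS.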

[4] = target: Glucocorticoid receptor (Homo sapiens) (UniProt P04150); assay: qHTS assay to identify small molecule agonists of the glucocorticoid receptor (GR) signaling pathway (AID 720691; active = well fitted activation curve with a large enough effect in the signal ratio in the repeat runs, not every such curve was filed as active; the % refers to the signal ratio); settings: GR-bla HeLa, beta-lactamase reporter ratio, 18 h
[5] = target: Glucocorticoid receptor (Homo sapiens) (UniProt P04150); assay: qHTS assay to identify small molecule antagonists of the glucocorticoid receptor (GR) signaling pathway (AID 720692; active = well fitted inhibition curve with a large enough effect in the signal ratio in the repeat runs, not every such curve was filed as active; the % refers to the signal ratio); settings: GR-bla HeLa, beta-lactamase FRET ratio, dexamethasone-stimulated, 18 h; at 58.5 µM (top of the series)
[6] = qHTS assay for identifying genotoxic compounds that show differential cytotoxicity against isogenic chicken DT40 cell lines with known DNA damage response pathways - wild type cell line (AID 743012); settings: DT40 wild type chicken cells viability, CellTiter-Glo, 40 h; note: nearly all actives have a fitted effect of over 60% in size
In short: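 Quantitative HTS on parental DT40 cells: 40 h compound treatment at 37 C/5% CO2, with viability then determined by CellTiter-Glo luminescence. Values serve as the DNA repair-proficient reference for differential cytotoxicity.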

[7] = qHTS assay for identifying genotoxic compounds that show differential cytotoxicity against isogenic chicken DT40 cell lines with known DNA damage response pathways - Rev3 mutant cell line (AID 743014); settings: chicken DT40 Rev3-/- viability, CellTiter-Glo, 40 h; series mostly up to 68.4 µM; note: nearly all actives have a fitted effect of over 55% in size; note: potency is the fitted concentration of half-maximal effect
[8] = qHTS assay for identifying genotoxic compounds that show differential cytotoxicity against isogenic chicken DT40 cell lines with known DNA damage response pathways - Rad54/Ku70 mutant cell line (AID 743015); settings: DT40 Rad54/Ku70 mutant viability, CellTiter-Glo, 40 h; series mostly up to 66.8 µM; note: nearly all actives have a fitted effect of over 60% in size; note: potency is the fitted concentration of half-maximal effect
[9] = qHTS assay to identify small molecule antagonists of the androgen receptor (AR) signaling pathway - cell viability counter screen (AID 743033; note: nearly all actives have a fitted effect of over 45% in size); settings: AR-bla HEK293 viability, CellTiter-Glo luminescence, 16 h
[10] = target: Androgen receptor (Homo sapiens) (UniProt P10275); assay: qHTS assay to identify small molecule antagonists of the androgen receptor (AR) signaling pathway (AID 743035; active = well fitted inhibition curve with a large enough effect in the signal ratio in the repeat runs, not every such curve was filed as active; the % refers to the signal ratio); settings: HEK293 AR-UAS-bla, R1881-stimulated, beta-lactamase FRET, 16 h; at 58.5 µM (top of the series) unless noted
% is set by controls: 0 for no effect and ±100 for the full control effect.

COP(C)(=O)OC
fluorescence, % of fluorescent control ([1]; at 91.3 µM (top of the series)): inactive: 0.126%
fluorescence, % of fluorescent control ([1]; at 95.7 µM (top of the series)): inactive: -0.0471%
fluorescence, % of fluorescein control ([2]; at 91.3 µM (top of the series)): inactive: -0.0669%
fluorescence, % of fluorescein control ([2]; at 95.7 µM (top of the series)): inactive: 0.0137%
fluorescence, % of fluorescent control ([3]; at 91.3 µM (top of the series)): inactive: 0.0483%
fluorescence, % of fluorescent control ([3]; at 95.7 µM (top of the series)): inactive: -0.0493%
activation ([4]; at 62.4 µM (top of the series)): inactive: 5.82%
activation ([4]; at 79.2 µM (top of the series)): inactive: -0.427%
activity change, negative = inhibition [5]: inactive: 22.4%
activity change, negative = cytotoxicity ([6]; at 68.4 µM (top of the series)): inactive: 12.6%
activity change, negative = cytotoxicity ([6]; at 95 µM (top of the series)): inactive: -18.5%
Potency [7]: inactive
Potency [8]: inactive
activity change, negative = cytotoxicity ([9]; at 58.5 µM (top of the series)): inactive: 1.81%
activity change, negative = cytotoxicity ([9]; at 78.9 µM (top of the series)): inactive: 0.228%

CC(C)N(CCCl)C(C)C
fluorescence, % of fluorescent control ([1]; at 46 µM (top of the series)): inactive: -0.137%
fluorescence, % of fluorescein control ([2]; at 46 µM (top of the series)): inactive: 0.0261%
fluorescence, % of fluorescent control ([3]; at 46 µM (top of the series)): inactive: 0.0318%
activation ([4]; at 62.4 µM (top of the series)): inactive: -1.48%
activity change, negative = cytotoxicity ([6]; at 68.4 µM (top of the series)): inactive: 1%
Potency [7]: inactive
Potency [8]: inactive
activity change, negative = cytotoxicity ([9]; at 58.5 µM (top of the series)): inactive: -7.69%

CN(C)CCS
fluorescence, % of fluorescent control ([1]; at 46 µM (top of the series)): inactive: -0.124%
fluorescence, % of fluorescein control ([2]; at 46 µM (top of the series)): inactive: 0.0035%
fluorescence, % of fluorescent control ([3]; at 46 µM (top of the series)): inactive: -0.0667%
activity change, negative = cytotoxicity ([6]; at 68.4 µM (top of the series)): inactive: -20%
Potency [7]: inactive
Potency [8]: inactive
activity change, negative = inhibition [10]: inactive: 5.69%

CCOP(=O)(CC)Oc1ccc([N+](=O)[O-])cc1 (stereo not drawn)
fluorescence, % of fluorescent control ([1]; at 46 µM (top of the series)): inactive: 0.0199%
fluorescence, % of fluorescein control ([2]; at 46 µM (top of the series)): inactive: 0.0443%
fluorescence, % of fluorescent control ([3]; at 46 µM (top of the series)): inactive: -0.21%
Potency [8]: inactive
activity change, negative = cytotoxicity ([9]; at 58.5 µM (top of the series)): inactive: 1.02%

[NH4+].[O-][Cl+3]([O-])([O-])[O-]
fluorescence, % of fluorescent control ([1]; at 91.3 µM (top of the series)): inactive: 0.005%
fluorescence, % of fluorescent control ([1]; at 95.7 µM (top of the series)): inactive: -0.173%
fluorescence, % of fluorescein control ([2]; at 91.3 µM (top of the series)): inactive: -0.0085%
fluorescence, % of fluorescein control ([2]; at 95.7 µM (top of the series)): inactive: -0.0113%
fluorescence, % of fluorescent control ([3]; at 91.3 µM (top of the series)): inactive: 0.0195%
fluorescence, % of fluorescent control ([3]; at 95.7 µM (top of the series)): inactive: -0.0934%
activity change, negative = cytotoxicity ([6]; at 68.4 µM (top of the series)): inactive: 7.86%
activity change, negative = cytotoxicity ([6]; at 95 µM (top of the series)): inactive: 13.9%
Potency [7]: inactive
Potency [8]: inactive
activity change, negative = cytotoxicity ([9]; at 58.5 µM (top of the series)): inactive: -2.53%
activity change, negative = cytotoxicity ([9]; at 78.9 µM (top of the series)): inactive: -0.333%

CC(C)OP(=O)(F)OC(C)C
fluorescence, % of fluorescent control ([1]; at 46 µM (top of the series)): inactive: 0.384%
fluorescence, % of fluorescein control ([2]; at 46 µM (top of the series)): inactive: 0.0445%
fluorescence, % of fluorescent control ([3]; at 46 µM (top of the series)): inactive: -0.0835%
activation ([4]; at 62.4 µM (top of the series)): inactive: -0.591%
activity change, negative = cytotoxicity ([6]; at 68.4 µM (top of the series)): inactive: 18.3%
Potency [7]: inactive
Potency [8]: inactive
activity change, negative = cytotoxicity ([9]; at 58.5 µM (top of the series)): inactive: 6.29%

O=[N+]([O-])[O-].[NH4+]
fluorescence, % of fluorescent control ([1]; at 46 µM (top of the series)): inactive: 0.0549%
fluorescence, % of fluorescent control ([1]; at 91.3 µM (top of the series)): inactive: 0.0737% and inactive: 0.0417%
fluorescence, % of fluorescein control ([2]; at 46 µM (top of the series)): inactive: -0.0153%
fluorescence, % of fluorescein control ([2]; at 91.3 µM (top of the series)): inactive: 0.0211% and inactive: 0.0128%
fluorescence, % of fluorescent control ([3]; at 46 µM (top of the series)): inactive: -0.0235%
fluorescence, % of fluorescent control ([3]; at 91.3 µM (top of the series)): inactive: 0.0395% and inactive: 0.0204%
activation ([4]; at 62.4 µM (top of the series)): inactive: -2.32% and inactive: 0.435% and inactive: -1.04%
activity change, negative = inhibition [5]: inactive: -6.69% and inactive: 1.1% and inactive: 2.23%
activity change, negative = cytotoxicity ([6]; at 68.4 µM (top of the series)): inactive: -0.715% and inactive: -23.5% and inactive: 10.5%
Potency [7]: inactive
Potency [8]: inactive
activity change, negative = cytotoxicity ([9]; at 58.5 µM (top of the series)): inactive: 0.323% and inactive: -1.36% and inactive: -31.5%

Cc1c([N+](=O)[O-])cccc1[N+](=O)[O-]
fluorescence, % of fluorescent control ([1]; at 91.3 µM (top of the series)): inactive: -0.208% and inactive: 0.001%
fluorescence, % of fluorescein control ([2]; at 91.3 µM (top of the series)): inactive: -0.114% and inactive: -0.0171%
fluorescence, % of fluorescent control ([3]; at 91.3 µM (top of the series)): inactive: -0.435% and inactive: -0.0004%
activation ([4]; at 62.4 µM (top of the series)): inactive: -3.03% and inactive: 0.785%
activity change, negative = inhibition [5]: inactive: 2.18% and inactive: 0.481%
activity change, negative = cytotoxicity ([6]; at 68.4 µM (top of the series)): inactive: 6.25%
Potency [7]: inactive
Potency [8]: inactive
activity change, negative = cytotoxicity ([9]; at 58.5 µM (top of the series)): inactive: -0.963% and inactive: 2.12%

O=[N+]([O-])c1cccc([N+](=O)[O-])c1
fluorescence, % of fluorescent control ([1]; at 46 µM (top of the series)): inactive: 0.0091%
fluorescence, % of fluorescent control ([1]; at 95.7 µM (top of the series)): inactive: -0.236%
fluorescence, % of fluorescein control ([2]; at 46 µM (top of the series)): inactive: -0.0328%
fluorescence, % of fluorescein control ([2]; at 95.7 µM (top of the series)): inactive: -0.117%
fluorescence, % of fluorescent control ([3]; at 46 µM (top of the series)): inactive: 0.0358%
fluorescence, % of fluorescent control ([3]; at 95.7 µM (top of the series)): inactive: 4.45%
activation ([4]; at 62.4 µM (top of the series)): inactive: -0.87%
activation ([4]; at 79.2 µM (top of the series)): inactive: -2.88%
activity change, negative = inhibition [5]: inactive: 11.6%
activity change, negative = cytotoxicity ([6]; at 68.4 µM (top of the series)): inactive: -1%
Potency [7]: inactive and active: 71.5 µM
Potency [8]: inactive and active: 71.5 µM
activity change, negative = cytotoxicity ([9]; at 58.5 µM (top of the series)): inactive: 7.3%

Cc1cccc([N+](=O)[O-])c1[N+](=O)[O-]
fluorescence, % of fluorescent control ([1]; at 91.3 µM (top of the series)): inactive: -0.185%
fluorescence, % of fluorescein control ([2]; at 91.3 µM (top of the series)): inactive: -0.157%
fluorescence, % of fluorescent control ([3]; at 91.3 µM (top of the series)): inactive: -0.416%
activation ([4]; at 62.4 µM (top of the series)): inactive: -9.56%
Potency [8]: active: 49.3 µM
activity change, negative = cytotoxicity ([9]; at 58.5 µM (top of the series)): inactive: -22.9%

CC(C)N(CCO)C(C)C
fluorescence, % of fluorescent control ([1]; at 91.3 µM (top of the series)): inactive: 0.25%
fluorescence, % of fluorescein control ([2]; at 91.3 µM (top of the series)): inactive: 0.0001%
fluorescence, % of fluorescent control ([3]; at 91.3 µM (top of the series)): inactive: 0.364%
activity change, negative = cytotoxicity ([6]; at 68.4 µM (top of the series)): inactive: 3.38%
Potency [7]: inactive
Potency [8]: inactive
activity change, negative = cytotoxicity ([9]; at 58.5 µM (top of the series)): inactive: -4.84%
activity change, negative = inhibition [10]: inactive: -12.7%
